{"sequences": {"note": "Protein sequences, listed by entry. Tags and fused reporters are not part of them. Lines headed by an entry give the natural chain unless they say otherwise; changes in a name come on top.", "UniProt P20831": "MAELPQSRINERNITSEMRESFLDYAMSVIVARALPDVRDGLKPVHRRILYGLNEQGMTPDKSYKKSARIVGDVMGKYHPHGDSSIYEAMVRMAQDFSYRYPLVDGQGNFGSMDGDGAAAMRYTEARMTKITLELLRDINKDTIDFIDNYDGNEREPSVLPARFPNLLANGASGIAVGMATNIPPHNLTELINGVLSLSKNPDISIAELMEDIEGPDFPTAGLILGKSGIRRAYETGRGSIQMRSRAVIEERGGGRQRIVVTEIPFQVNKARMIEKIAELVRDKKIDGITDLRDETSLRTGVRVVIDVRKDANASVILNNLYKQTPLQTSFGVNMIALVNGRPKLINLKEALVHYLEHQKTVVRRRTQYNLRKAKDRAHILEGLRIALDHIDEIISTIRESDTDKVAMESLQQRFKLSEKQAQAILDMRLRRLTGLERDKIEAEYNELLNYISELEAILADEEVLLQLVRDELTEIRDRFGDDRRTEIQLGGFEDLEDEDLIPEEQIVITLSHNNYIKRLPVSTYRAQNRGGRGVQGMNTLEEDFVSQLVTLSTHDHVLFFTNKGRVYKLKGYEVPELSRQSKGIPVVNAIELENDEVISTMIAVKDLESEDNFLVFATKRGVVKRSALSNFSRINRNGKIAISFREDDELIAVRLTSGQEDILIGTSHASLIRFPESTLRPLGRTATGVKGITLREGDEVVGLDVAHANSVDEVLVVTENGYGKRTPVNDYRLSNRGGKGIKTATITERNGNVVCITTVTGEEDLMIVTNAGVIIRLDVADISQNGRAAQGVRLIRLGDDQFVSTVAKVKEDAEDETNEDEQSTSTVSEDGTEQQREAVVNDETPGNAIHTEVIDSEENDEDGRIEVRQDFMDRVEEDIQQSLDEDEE", "UniProt P0AFI2": "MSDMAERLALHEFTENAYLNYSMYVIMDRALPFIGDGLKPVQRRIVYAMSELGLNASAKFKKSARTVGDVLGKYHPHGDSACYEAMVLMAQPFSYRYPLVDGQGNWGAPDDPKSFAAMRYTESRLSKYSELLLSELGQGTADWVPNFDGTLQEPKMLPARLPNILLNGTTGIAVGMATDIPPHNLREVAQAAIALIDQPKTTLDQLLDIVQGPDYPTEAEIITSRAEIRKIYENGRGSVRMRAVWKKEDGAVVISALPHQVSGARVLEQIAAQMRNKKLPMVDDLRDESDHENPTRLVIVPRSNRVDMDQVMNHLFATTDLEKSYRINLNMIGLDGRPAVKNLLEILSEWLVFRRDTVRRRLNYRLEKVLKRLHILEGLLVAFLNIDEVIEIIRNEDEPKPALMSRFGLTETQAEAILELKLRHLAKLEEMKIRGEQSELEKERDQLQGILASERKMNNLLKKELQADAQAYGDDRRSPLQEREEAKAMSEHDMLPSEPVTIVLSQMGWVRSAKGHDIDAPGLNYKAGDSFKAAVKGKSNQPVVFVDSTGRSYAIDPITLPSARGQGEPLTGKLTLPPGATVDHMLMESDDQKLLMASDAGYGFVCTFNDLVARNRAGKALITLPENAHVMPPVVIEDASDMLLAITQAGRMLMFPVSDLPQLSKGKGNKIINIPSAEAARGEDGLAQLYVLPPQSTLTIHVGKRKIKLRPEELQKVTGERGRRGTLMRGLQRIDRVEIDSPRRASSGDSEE"}, "source": "paper PMC8300687", "about": "“A Fine-Tuned Lipophilicity/Hydrophilicity Ratio Governs Antibacterial Potency and Selectivity of Bifurcated Halogen Bond-Forming NBTIs” (Antibiotics, 2021)", "format_in_all_cases": "biochemical", "conditions_in_all_cases": "LE = (1.37/HA) × pIC50", "key": {"E. coli DNA gyrase": {"target": "T1, E. coli DNA gyrase (Escherichia coli, UniProt P0AES4)", "T1 construct": "purchased Inspiralis (Norwich, UK)", "assay": "Gyrase Supercoiling High Throughput Plate assay, E. coli"}, "S. aureus DNA gyrase": {"target": "T2, S. aureus DNA gyrase (Staphylococcus aureus, UniProt P20831)", "T2 construct": "purchased Inspiralis (Norwich, UK)"}, "E. coli Topo IV": {"target": "T3, E. coli Topo IV (Escherichia coli, UniProt P0AFI2)", "T3 construct": "purchased Inspiralis (Norwich, UK)", "assay": "Topo IV Relaxation High Throughput Plate assay, E. coli"}}}
{"smiles": "COc1ccc2nccc(CCN3CCC(NCc4ccc(Br)cc4)CC3)c2n1", "note": "[Compound 14]", "values": [{"measurement": "LE DNA Gyrase E. coli", "setting": "E. coli DNA gyrase", "value": 0.29}, {"measurement": "LE DNA Gyrase S. aureus", "setting": "S. aureus DNA gyrase", "value": 0.39}, {"measurement": "LE Topo IV E. coli", "setting": "E. coli Topo IV", "value": 0.35}]}
{"smiles": "COc1ccc2nccc(CCN3CCC(NCc4ccc(I)cc4)CC3)c2n1", "note": "[Compound 15]", "values": [{"measurement": "LE DNA Gyrase S. aureus", "setting": "S. aureus DNA gyrase", "value": 0.38}, {"measurement": "LE Topo IV E. coli", "setting": "E. coli Topo IV", "value": 0.36}]}
